Assay results taken from paper PMC5908791.

Target: SOCS1/ElonginB/ElonginC ternary complex (human SOCS1 residues 53-211) (human) (UniProt O15524)
Assay: ITC; 10-40 uM SOCS1/ElonginBC in the cell, 80-400 uM peptide injected; 25 °C; 20 mM Tris-HCl pH 7.5, 150 mM NaCl, 2 mM beta-mercaptoethanol; Microcal ITC200

Row | pKd | Substance
1 | 6.80 | JAK1 ALP ala pY+1 (peptide)
2 | 6.57 | JAK1 ALP ala pY+2 (peptide)
3 | 5.85 | JAK1 ALP ala pY+3 (peptide)
4 | 6.67 | JAK1 ALP ala pY+4 (peptide)
5 | 5.95 | JAK1 ALP ala pY+5 (peptide)
6 | 6.31 | JAK1 ALP ala pY+6 (peptide)
7 | 6.49 | JAK1 ALP ala pY+7 (peptide)
8 | 6.63 | JAK1 ALP ala pY+8 (peptide)
9 | 6.41 | JAK1 ALP ala pY-1 (peptide)
10 | 6.42 | JAK1 ALP ala pY-2 (peptide)
11 | 6.60 | JAK1 ALP ala pY-3 (peptide)
12 | 6.72 | JAK1 ALP ala pY-4 (peptide)
13 | 6.43 | JAK1 ALP ala pY-5 (peptide)
14 | 6.85 | JAK1 ALP ala pY-6 (peptide)
15 | 6.94 | JAK1 ALP ala pY-7 (peptide)

pKd: −log10 of the molar value.
